Laboratory results: ChEMBL document CHEMBL6092226, “Tilting the Scales toward EGFR Mutant Selectivity: Expanding the Scope of Bivalent "Type V" Kinase Inhibitors” (J Med Chem, 2024)

Assays:
[1] = system: Epidermal growth factor receptor (Homo sapiens), P00533 [L858R,T790M]; experiment: Time-dependent irreversible inhibition of GST-tagged EGFR L858R/T790M mutant cytoplasmic domain (669 to 1210 residues) (unknown origin) assessed as apparent Kinact/Ki ratio incubated for 240 mins in presence of ATP by fluorescence based analysis
[2] = system: Epidermal growth factor receptor (Homo sapiens), P00533 [L858R]; experiment: Time-dependent irreversible inhibition of GST-tagged EGFR L858R mutant cytoplasmic domain (669 to 1210 residues) (unknown origin) assessed as apparent Kinact/Ki ratio incubated for 240 mins in presence of ATP by fluorescence based analysis
[3] = molecular target: T1, Epidermal growth factor receptor (Homo sapiens, UniProt P00533); experiment: Time-dependent irreversible inhibition of N-terminal GST-tagged wildtype human EGFR cytoplasmic domain (669 to 1210 residues) extracted from Sf21 insect cells assessed as apparent Kinact/Ki ratio incubated for 240 mins in presence of ATP by fluorescence based analysis; assay type: cell-based
[4] = molecular target: T1, Epidermal growth factor receptor; experiment: Time-dependent irreversible inhibition of N-terminal GST-tagged wildtype human EGFR cytoplasmic domain (669 to 1210 residues) extracted from Sf21 insect cells assessed as maximal rate inactivation rate (Kinact) incubated for 240 mins in presence of ATP by fluorescence based analysis; assay type: cell-based
[5] = system: Epidermal growth factor receptor (Homo sapiens), P00533 [L858R,T790M]; experiment: Time-dependent irreversible inhibition of GST-tagged EGFR L858R/T790M mutant cytoplasmic domain (669 to 1210 residues) (unknown origin) assessed as maximal rate inactivation constant (Kinact) incubated for 240 mins in presence of ATP by fluorescence based analysis
[6] = system: Epidermal growth factor receptor (Homo sapiens), P00533 [L858R]; experiment: Time-dependent irreversible inhibition of GST-tagged EGFR L858R mutant cytoplasmic domain (669 to 1210 residues) (unknown origin) assessed as maximal rate inactivation constant (Kinact) incubated for 240 mins in presence of ATP by fluorescence based analysis

`C=CC(=O)Nc1ccc(OC)c(Nc2cc(-c3[nH]c(SC)nc3-c3cccc(NC(=O)c4ccccc4CN4Cc5ccccc5C4=O)c3)ccn2)c1` was tested, and the Ratio [1] was 2930 M⁻¹ s⁻¹, the Ratio [2] was 24500 M⁻¹ s⁻¹ and the Ratio [3] was 1350 M⁻¹ s⁻¹. For the same molecule, the Kinact [4] was 0.001 s⁻¹, the Kinact [5] was 0.001 s⁻¹ and the Kinact [6] was 0.006 s⁻¹.
